Results published in patent US7501434B2, “6-carboxy-normorphinan derivatives, synthesis and uses thereof” (Wyeth, priority 2006, dated 2009).

Protein sequences, listed by entry. Tags and fused reporters are not part of them. Lines headed by an entry give the natural chain unless they say otherwise; changes in a name come on top.
UniProt P41144: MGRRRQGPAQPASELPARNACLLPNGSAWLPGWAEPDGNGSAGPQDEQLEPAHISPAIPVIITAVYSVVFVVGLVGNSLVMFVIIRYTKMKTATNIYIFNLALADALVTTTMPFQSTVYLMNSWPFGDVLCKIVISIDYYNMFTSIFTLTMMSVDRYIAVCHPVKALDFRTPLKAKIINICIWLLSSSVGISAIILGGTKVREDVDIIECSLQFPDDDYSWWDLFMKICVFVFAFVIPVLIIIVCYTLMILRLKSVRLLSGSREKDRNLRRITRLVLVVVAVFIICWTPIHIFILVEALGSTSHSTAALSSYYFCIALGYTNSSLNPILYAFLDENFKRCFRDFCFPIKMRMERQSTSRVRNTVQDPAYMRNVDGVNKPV

Target: Kappa 1 (UniProt P41144)
Assay: Neurotransmitter assay (radioligand binding), Kappa 1
Details: read-out: Kd (M) of radioligand

**Q.** For [3H]U-69593, which Kd is on record?
**A.** 2.5e-10 M
